In paper PMC3816687, “Relationships between Cargo, Cell Penetrating Peptidesand Cell Type for Uptake of Non-Covalent Complexes into Live Cells” (Pharmaceuticals, 2013):

What was measured:
HeLa cells = conditions: 0.3 × 10^6 intact cells per well, PBS, 37 °C, 5% CO2, samples at 15, 30, 45, 60 min, RP18 HPLC, 220 nm
Experimental: (§1) In a 6-well-plate with 0.3 × 10^6 cells per well the different cell types were cultivated overnight under optimized conditions. Then medium was removed by aspiration (adherent cell) or centrifugation (suspension cells) and washed cells were incubated with CPPs in phosphate buffer solution (PBS). Incubation was performed under the same conditions as the transduction of complexes with the cargo for 1 h at 37 °C in a humidified atmosphere containing 5% CO2. After 15, 30, 45 and 60 min samples of 200 µL were taken and the proteolytic reaction was stopped by addition of 50 µL 37 perc. HCl. After freezing and lyophilization samples were analyzed by analytical high performance liquid chromatography (HPLC), using a RP18 column (Vydac 218TP). In case of MPGβ, for elution a gradient was used from 10% acetonitrile and 90% water, both containing 0.1% trifluoroacetic acid to 60% acetonitrile and 40% water in 50 min. […] The flow rate was 1.0 ml/min and detection was performed at 220 nm.

NIH-3T3 cells = conditions: 0.3 × 10^6 intact cells per well, PBS, 37 °C, 5% CO2, samples at 15, 30, 45, 60 min, RP18 HPLC, 220 nm
Experimental: as §1

Leishmania cells = conditions: intact cells; cited from earlier work
Description: Chosen CPPs have different chemical properties, i.e. distribution of charged, polar and non-polar residues, leading to different amphiphilicity and hydrophobicity. […] Mammalian cell lines can also degrade CPPs.

[1] = system: most of the cells investigated; test: Proteolytic stability of CPPs compared over the cells investigated; type: in vitro ADME; conditions: incubation with intact cells up to 60 min, PBS, 37 °C, HPLC
Experimental: as §1

Leishmania tarentolae = test: Cytotoxicity test for Leishmania tarentolae (morphology and motility); type: cell-based; conditions: 1 h in PBS with increasing concentrations, changes in morphology and motility, microscope 400-fold
Experimental: Leishmania cells were cultivated as described previously, resuspended in PBS and treated with increasing concentrations of cocktails and CPPs for 1 h. Cytotoxic effects were monitored by changes in morphology and motility observed using a microscope at 400-fold magnification.

Q: What does the source list for `CC[C@H](C)[C@H](NC(=O)[C@H](CCCCN)NC(=O)[C@@H](NC(=O)[C@H](CCC(N)=O)NC(=O)[C@@H](N)CCCNC(=N)N)[C@@H](C)CC)C(=O)N[C@@H](Cc1c[nH]c2ccccc12)C(=O)N[C@@H](Cc1ccccc1)C(=O)N[C@@H](CCC(N)=O)C(=O)N[C@@H](CC(N)=O)C(=O)N[C@@H](CCCNC(=N)N)C(=O)N[C@@H](CCCNC(=N)N)C(=O)N[C@@H](CCSC)C(=O)N[C@@H](CCCCN)C(=O)N[C@@H](Cc1c[nH]c2ccccc12)C(=O)N[C@@H](CCCCN)C(=O)N[C@@H](CCCCN)C(=O)O` [Penetratin (Antennapedia)]?
A: time within which the CPP is cleaved by HeLa cells (HeLa cells): ≤ 60 min; time within which the CPP is cleaved by NIH-3T3 cells (NIH-3T3 cells): ≤ 60 min; time within which the CPP is fully degraded by Leishmania cells (Leishmania cells): ≤ 60 min; relative proteolytic stability among the CPPs [1]: most labile; Cytotoxicity in Leishmania tarentolae (Leishmania tarentolae): ≤ 10 µM
